Tests used:
[1] = biological target: Kappa-type opioid receptor (Mus musculus) (UniProt P33534); assay: In vitro efficacy in field stimulated mouse vas deferens assay expressed as Ke for naloxone versus compound
[2] = biological target: Kappa-type opioid receptor (Mus musculus) (UniProt P33534); assay: Agonistic activity on field stimulated mouse vas deferens preparation expressed as molar potency ratio relative to standard agonist EKC
[3] = biological target: Kappa-type opioid receptor (Mus musculus) (UniProt P33534); assay: In vitro efficacy against naloxone, in mouse vas deferens, activity expressed as Ke values.
[4] = biological target: Kappa-type opioid receptor (Mus musculus) (UniProt P33534); assay: Molar potency ratio relative to the standard agonist EKC assayed in mouse vas deferens.

Amino acid sequences for entries named in this document (tags omitted).
UniProt P33534, whole entry: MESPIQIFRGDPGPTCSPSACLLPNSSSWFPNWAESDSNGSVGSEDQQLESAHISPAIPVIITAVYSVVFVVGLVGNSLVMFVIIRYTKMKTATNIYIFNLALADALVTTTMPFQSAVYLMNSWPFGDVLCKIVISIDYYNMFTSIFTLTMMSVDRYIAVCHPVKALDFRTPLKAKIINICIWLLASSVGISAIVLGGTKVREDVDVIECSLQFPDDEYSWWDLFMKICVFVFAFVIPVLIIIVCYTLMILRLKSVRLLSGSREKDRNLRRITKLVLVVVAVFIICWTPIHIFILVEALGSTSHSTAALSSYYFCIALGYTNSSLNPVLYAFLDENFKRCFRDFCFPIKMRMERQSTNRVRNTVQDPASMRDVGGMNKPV

SMILES	Ke [1]	Potency ratio [2]	Ke [3]	Potency ratio [4]
COc1ccc(C(CN2CCCC2)N(C)C(=O)Cc2ccc(Cl)c(Cl)c2)c(OC)c1 (stereo unspecified)	21.4 nM	1.8	–	–
CCC(C)[C@@H](CN1CCCC1)N(C)C(=O)Cc1ccc(Cl)c(Cl)c1 (stereo partly specified)	–	–	22.2 nM	8.5
CNc1cccc(C(CN2CCCC2)N(C)C(=O)Cc2ccc(Cl)c(Cl)c2)c1 (stereo unspecified)	16.8 nM	7.7	–	–
CCC[C@@H](CN1CCCC1)N(C)C(=O)Cc1ccc(Cl)c(Cl)c1	–	–	16.1 nM	0.9
CC[C@@H](CN1CCCC1)N(C)C(=O)Cc1ccc(Cl)c(Cl)c1	–	–	19.9 nM	0.14
CN(C(=O)Cc1ccc(Cl)c(Cl)c1)C(CN1CCCC1)c1cccc(N)c1 (stereo unspecified)	11.3 nM	24	–	–
CN(C(=O)Cc1ccc(Cl)c(Cl)c1)C(CN1CCCC1)c1ccc(O)cc1 (stereo unspecified)	52.7 nM	11	–	–
CN(C(=O)Cc1ccc(Cl)c(Cl)c1)[C@H](CN1CC=CC1)c1ccccc1	26.1 nM	40.9	–	–
CC(C)[C@H](CN1CCCC1)N(C)C(=O)Cc1ccc(Cl)c(Cl)c1	–	–	17.1 nM	0.015
COc1cccc(C(CN2CCCC2)N(C)C(=O)Cc2ccc(Cl)c(Cl)c2)c1 (stereo unspecified)	18.5 nM	2.45	–	–
CC(C)[C@@H](CN1CCCCC1)N(C)C(=O)Cc1ccc(Cl)c(Cl)c1	–	–	24.4 nM	1.45
CN(C(=O)Cc1ccc(Cl)c(Cl)c1)C(CN1CCCC1)c1cccc(C#N)c1 (stereo unspecified)	–	0.53	–	–
COc1ccc(C(CN2CCCC2)N(C)C(=O)Cc2ccc(Cl)c(Cl)c2)cc1OC (stereo unspecified)	16 nM	21.3	–	–
CN(C(=O)Cc1ccc(Cl)c(Cl)c1)C(CN1CCCC1)c1cccc(Cl)c1 (stereo unspecified)	–	–	5.7 nM	4.65
COc1ccc(C(CN2CCCC2)N(C)C(=O)Cc2ccc(Cl)c(Cl)c2)cc1 (stereo unspecified)	12.9 nM	2.9	–	–
CSc1ccc(C(CN2CCCC2)N(C)C(=O)Cc2ccc(Cl)c(Cl)c2)cc1 (stereo unspecified)	13.8 nM	0.48	–	–
CN(C(=O)Cc1ccc(Cl)c(Cl)c1)C(CN1CCCC1)c1cccc(O)c1 (stereo unspecified)	–	6.5	–	–
C[C@@H](CN1CCCC1)N(C)C(=O)Cc1ccc(Cl)c(Cl)c1	–	–	18.5 nM	0.14
CN(C(=O)Cc1ccc(Cl)c(Cl)c1)C(CN1CCCC1)C(C)(C)C (stereo unspecified)	–	–	11 nM	2.5
COc1ccccc1C(CN1CCCC1)N(C)C(=O)Cc1ccc(Cl)c(Cl)c1 (stereo unspecified)	11.6 nM	7.5	–	–
CN(C(=O)Cc1ccc(Cl)c(Cl)c1)C(CN1CCCC1)c1ccccc1O (stereo unspecified)	–	0.4	–	–
CN(C(=O)Cc1ccc(Cl)c(Cl)c1)C(CN1CCCC1)c1ccccc1 (stereo unspecified)	–	–	3.4 nM	5.2
CC(C)C[C@@H](CN1CCCC1)N(C)C(=O)Cc1ccc(Cl)c(Cl)c1	–	–	–	3.2
CC(C)[C@@H](CN1CCCC1)N(C)C(=O)Cc1ccc(Cl)c(Cl)c1	–	–	14.9 nM	4.3
CN(C(=O)Cc1ccc(Cl)c(Cl)c1)[C@H](CN1CCCC1)c1ccccc1	–	–	17.8 nM	16.1
